Experimental findings from US9102686B2, “5,6,7,8,9,10-hexahydro-6,10-epimino[1,2,4]triazolo[4,3-a]azocines as P2X7 modulators” (Janssen Pharmaceutica NV, priority 2013, dated 2015) are described below.

Chains of the proteins cited; added tags and fusions are not shown. Lines headed by an entry give the natural chain unless they say otherwise; changes in a name come on top.
UniProt Q99572: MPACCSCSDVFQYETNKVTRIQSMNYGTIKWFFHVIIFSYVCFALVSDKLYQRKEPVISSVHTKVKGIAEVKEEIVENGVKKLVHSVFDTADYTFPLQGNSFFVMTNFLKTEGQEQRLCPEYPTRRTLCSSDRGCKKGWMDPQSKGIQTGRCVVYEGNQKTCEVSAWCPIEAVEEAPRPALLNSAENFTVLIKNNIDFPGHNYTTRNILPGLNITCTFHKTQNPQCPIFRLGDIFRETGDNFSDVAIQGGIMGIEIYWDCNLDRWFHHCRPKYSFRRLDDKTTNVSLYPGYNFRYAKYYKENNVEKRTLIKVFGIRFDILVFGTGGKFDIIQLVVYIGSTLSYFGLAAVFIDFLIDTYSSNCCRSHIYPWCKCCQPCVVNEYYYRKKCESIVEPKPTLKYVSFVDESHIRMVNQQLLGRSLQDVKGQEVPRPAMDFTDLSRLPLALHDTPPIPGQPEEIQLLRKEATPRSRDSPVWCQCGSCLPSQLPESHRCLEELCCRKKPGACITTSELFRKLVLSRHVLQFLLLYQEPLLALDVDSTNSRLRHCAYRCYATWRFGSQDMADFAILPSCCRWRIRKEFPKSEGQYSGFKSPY
UniProt Q64663: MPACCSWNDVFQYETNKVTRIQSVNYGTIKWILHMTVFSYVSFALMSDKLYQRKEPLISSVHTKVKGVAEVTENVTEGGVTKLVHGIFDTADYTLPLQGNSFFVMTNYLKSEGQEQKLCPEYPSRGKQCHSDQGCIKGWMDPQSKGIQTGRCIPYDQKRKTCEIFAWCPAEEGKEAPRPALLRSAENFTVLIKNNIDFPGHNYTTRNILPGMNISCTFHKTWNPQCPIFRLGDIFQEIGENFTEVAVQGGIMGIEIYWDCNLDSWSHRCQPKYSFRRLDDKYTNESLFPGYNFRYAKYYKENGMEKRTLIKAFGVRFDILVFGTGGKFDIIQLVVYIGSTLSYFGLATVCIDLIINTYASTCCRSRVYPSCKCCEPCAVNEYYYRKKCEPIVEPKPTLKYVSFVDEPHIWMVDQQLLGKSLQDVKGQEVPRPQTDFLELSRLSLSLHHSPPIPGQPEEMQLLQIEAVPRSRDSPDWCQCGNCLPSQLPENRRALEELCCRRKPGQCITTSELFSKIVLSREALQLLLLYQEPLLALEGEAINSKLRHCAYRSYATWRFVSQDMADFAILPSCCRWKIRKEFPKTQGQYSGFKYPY

Assay [1] concerns the target T1, P2X7 (Homo sapiens (Human), UniProt Q99572). The assay is described as follows: P2X7 antagonism in human PBMCs (IL-1β release, LPS + Bz-ATP). Conditions: 10 μM test compound, IL-1β release in human PBMCs, LPS 30 ng/ml, Bz-ATP 0.5 mM, read-out: PBMC 10 μM (% control). The assay is classed as cell-based. As to the method: Human blood was collected using a blood donor program. […] Cells were incubated for an additional 1.5 hours.

Assay [2] has as its target T1, P2X7. The experiment in a line: Radioligand binding, human P2X7-1321N1 cell membranes, tritiated A-804598. Conditions: human P2X7-1321N1 membranes, tracer tritiated A-804598, 1 hour 4° C. Here is the method:
P2X7 Antagonism in Recombinant hP2X7 Cells: (a) Ca^2+ Flux (b) Radioligand Binding
(B) Radioligand binding: human or rat P2X7-1321N1 cells were collected and frozen @−80° C. On the day of the experiment, cell membrane preparations were made according to standard published methods. The total assay volume was 100 μl:10 μl compound (10×)+(b) 40 μl tracer (2.5×)+50 μl membrane (2×). The tracer used for the assay was tritiated A-804598. The compound can be prepared as described in the literature. […] The assay was terminated by filtration (GF/B filters pre-soaked with 0.3% PEI) and washed with washing buffer (Tris-HCl 50 mM). The IC50 generated in the binding assay was corrected for tracer concentration and affinity of the tracer to derive at the affinity (Ki) of the test compounds.

Assay [3] addresses T2, rat P2X7 (Rattus norvegicus (Rat), UniProt Q64663). The experiment in a line: Radioligand binding, rat P2X7-1321N1 cell membranes, tritiated A-804598. Conditions: rat P2X7-1321N1 membranes, tracer tritiated A-804598, 1 hour 4° C.
For assay [4], the target named is T2, rat P2X7. The assay is described as follows: Ca2+ flux (FLIPR) in 1321N1 cells expressing recombinant rat P2X7 channel. Particulars: rat P2X7, 250 μM BzATP. The format is cell-based. A general note: A change in cytosolic calcium serves as a functional read-out for many receptors and channels.
Assay [5] addresses T1, P2X7. The assay is described as follows: Ca2+ flux (FLIPR) in 1321N1 cells expressing recombinant human P2X7 channel. The assay is classed as cell-based. Conditions: human P2X7, 250 μM BzATP.

As to `O=C(c1cccc(C(F)(F)F)c1Cl)N1[C@H]2CCC[C@@H]1c1nnc(-c3ccccn3)n1C2` (relative stereo) [Example 32, (6S*,10R*)-11-{[2-Chloro-3-(trifluoromethyl)phenyl]carbonyl}-3-pyridin-2-yl-5,6,7,8,9,10-hexahydro-6,10-epimino[1,2,4]triazolo[4,3-a]azocine], the remaining activity at 10 µM on P2X7 [1] was 94.5%. As to `Cc1c(C(=O)N2[C@H]3CC[C@@H]2c2nnc(-c4ccccn4)n2C3)cccc1C(F)(F)F` [Example 44, (6S,9R)-10-{[2-Methyl-3-(trifluoromethyl)phenyl]carbonyl}-3-pyridin-2-yl-6,7,8,9-tetrahydro-5H-6,9-epimino[1,2,4]triazolo[4,3-a]azepine], the Ki at P2X7 [2] and at rat P2X7 [3] was 12.6 nM throughout. In the case of `Cc1nc(-c2nnc3n2C[C@@H]2CC[C@H]3N2C(=O)c2cccc(C(F)(F)F)c2Cl)cs1` [Example 56, (6S,9R)-10-{[2-Chloro-3-(trifluoromethyl)phenyl]carbonyl}-3-(2-methyl-1,3-thiazol-4-yl)-6,7,8,9-tetrahydro-5H-6,9-epimino[1,2,4]triazolo[4,3-a]azepine], on rat P2X7 [4], the half-maximal inhibitory concentration (IC50) came out at 5.97 µM.

`O=C(c1ccc(F)c(C(F)(F)F)c1Cl)N1[C@H]2CC[C@@H]1c1nnc(-c3ccccn3)n1C2` [Example 43, (6S,9R)-10-{[2-Chloro-4-fluoro-3-(trifluoromethyl)phenyl]carbonyl}-3-pyridin-2-yl-6,7,8,9-tetrahydro-5H-6,9-epimino[1,2,4]triazolo[4,3-a]azepine]: on rat P2X7 [4], the concentration for half-maximal inhibition (IC50) was 3.98 µM.

In the case of `O=C(c1cccc(C(F)(F)F)c1Cl)N1[C@H]2CC[C@@H]1c1nnc(-c3cccnc3)n1C2` [Example 48, (6S,9R)-10-{[2-Chloro-3-(trifluoromethyl)phenyl]carbonyl}-3-pyridin-3-yl-6,7,8,9-tetrahydro-5H-6,9-epimino[1,2,4]triazolo[4,3-a]azepine], on rat P2X7 [4], the 50% inhibitory concentration (IC50) is 2.92 µM. Still for that read-out and setting: then `O=C(c1ccc(F)c(Cl)c1Cl)N1[C@H]2CC[C@@H]1c1nnc(-c3cnccn3)n1C2` [Example 47, (6S,9R)-10-[(2,3-Dichloro-4-fluorophenyl)carbonyl]-3-pyrazin-2-yl-6,7,8,9-tetrahydro-5H-6,9-epimino[1,2,4]triazolo[4,3-a]azepine], with 1.92 µM; and `O=C(c1cccc(C(F)(F)F)c1Cl)N1[C@H]2CC[C@@H]1c1nnc(-c3ccc(Cl)s3)n1C2` [Example 55, (6S,9R)-3-(5-Chlorothiophen-2-yl)-10-{[2-chloro-3-(trifluoromethyl)phenyl]carbonyl}-6,7,8,9-tetrahydro-5H-6,9-epimino[1,2,4]triazolo[4,3-a]azepine], with 1.97 µM.

Take `O=C(c1cccc(C(F)(F)F)c1Cl)N1[C@H]2CCC[C@@H]1c1nnc(-c3ccc(Cl)cn3)n1C2` (relative stereo) [Example 29, (6S*,10R*)-3-(5-Chloropyridin-2-yl)-11-{[2-chloro-3-(trifluoromethyl)phenyl]carbonyl}-5,6,7,8,9,10-hexahydro-6,10-epimino[1,2,4]triazolo[4,3-a]azocine]: on P2X7 [1], the remaining activity at 10 µM was found to be 91.4%. For `O=C(c1cccc(C(F)(F)F)c1Cl)N1[C@H]2CC[C@@H]1c1nnc(-c3ncc(F)cn3)n1C2` [Example 50, (6S,9R)-10-{[2-Chloro-3-(trifluoromethyl)phenyl]carbonyl}-3-(5-fluoropyrimidin-2-yl)-6,7,8,9-tetrahydro-5H-6,9-epimino[1,2,4]triazolo[4,3-a]azepine], the IC50 on P2X7 [5] was 10.4 nM. `O=C(c1cccc(C(F)(F)F)c1Cl)N1[C@H]2CC[C@@H]1c1nnc(-c3ccc(F)cn3)n1C2` [Example 45, (6S,9R)-10-{[2-Chloro-3-(trifluoromethyl)phenyl]carbonyl}-3-(5-fluoropyridin-2-yl)-6,7,8,9-tetrahydro-5H-6,9-epimino[1,2,4]triazolo[4,3-a]azepine]: the concentration for half-maximal inhibition (IC50) at rat P2X7 [4] turned out to be 15.8 µM.

As usually defined, the Ki is a measure of affinity in units of concentration, obtained from inhibition or displacement. Read a high Ki as lower affinity. In general, IC50 refers to the point on the concentration scale where inhibition reaches its midpoint.
